Measurements published in patent US11806555B2, “Methods for treating hair loss disorders” (THE TRUSTEES OF COLUMBIA UNIVERSITY IN THE CITY OF NEW YORK, priority 2010, dated 2023).

Tested on: dermal sheath cells

tofacitinib
IL-15-induced LAK cell cytotoxic function (dermal sheath cell cytotoxicity): inhibits
